From patent US8933107B2, “Pesticide thiazolyloxy substituted phenylamidine derivatives” (Bayer Cropscience AG, priority 2005, dated 2015) come the findings set out here.

Data set [1] relates to Myzus persicae. In words: Myzus persicae test (MYZUPE spray application). Particulars: Chinese cabbage leaf-disks, concentration and time not stated.
Data set [2] deals with Heliotis virescens. Nature of the data set: Heliotis virescens test (HELIVI spray application). In kind it is in vivo. Particulars: soybean leaf sections, concentration and time not stated.

Under “Table 1, HPLC C 18, 40° C., 0.1% aqueous formic acid and acetonitrile”, “4-[(4,5-dichloro-1,3-thiazol-2-yl)oxy]-2,5-dimethyl-N-[piperidin-2-lidene]aniline” yielded a log p (HCOOH) of 1.97. Moreover, the log P (pH 2.3) (pH 2.3, preparation examples) was 1.97. Moreover, the “activity (mortality of aphids)” value in data set [1] is “good activity”. In data set [2], the “activity (mortality of eggs)” value is “good activity”.
